# Measurements: patent US11472877 (Alector, dated 2022)
# The chains behind the UniProt entries cited, without tags or fusion partners. A line that says so, or that is headed by a name, gives the form on record, which may keep a tag or linker. Residues count along the entry.
# UniProt Q9NP99, 21-205 limits assumed, form in doubt: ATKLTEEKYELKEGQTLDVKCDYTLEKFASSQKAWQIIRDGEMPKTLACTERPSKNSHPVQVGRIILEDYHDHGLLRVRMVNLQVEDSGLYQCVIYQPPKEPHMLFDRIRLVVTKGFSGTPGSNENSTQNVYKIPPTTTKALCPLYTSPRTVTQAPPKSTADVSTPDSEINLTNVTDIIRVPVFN
# UniProt Q9NP99, 21-234: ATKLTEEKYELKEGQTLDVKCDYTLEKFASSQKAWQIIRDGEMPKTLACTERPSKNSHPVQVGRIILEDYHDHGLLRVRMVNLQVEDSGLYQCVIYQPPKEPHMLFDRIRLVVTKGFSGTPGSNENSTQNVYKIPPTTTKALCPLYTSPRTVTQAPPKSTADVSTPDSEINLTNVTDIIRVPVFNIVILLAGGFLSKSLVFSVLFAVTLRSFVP
# T1: mouse TREM1 on CHO cells (mouse, UniProt Q9JKE2 21-230)
# T1 construct: also called CHO-mT1
# T1 sequence: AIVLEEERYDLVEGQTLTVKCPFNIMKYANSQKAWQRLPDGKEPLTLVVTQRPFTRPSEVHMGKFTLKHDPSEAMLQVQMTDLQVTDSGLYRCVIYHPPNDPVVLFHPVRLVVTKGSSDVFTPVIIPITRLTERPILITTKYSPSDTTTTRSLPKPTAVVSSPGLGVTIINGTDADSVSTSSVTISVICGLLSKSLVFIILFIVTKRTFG
# T2: mouse TREM2 on BWZ cells (mouse, UniProt Q99NH8 19-227)
# T2 construct: whole, on cells; also called BWZ Mouse TREM2
# T2 sequence (looked up): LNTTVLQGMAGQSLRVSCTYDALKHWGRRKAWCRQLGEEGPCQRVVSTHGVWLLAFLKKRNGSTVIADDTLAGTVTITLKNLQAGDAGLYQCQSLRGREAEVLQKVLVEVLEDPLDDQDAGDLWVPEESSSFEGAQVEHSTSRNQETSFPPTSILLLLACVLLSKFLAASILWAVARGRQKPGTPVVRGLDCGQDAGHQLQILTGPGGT
# T3: human TREM2 on BWZ cells (human, UniProt Q9NZC2 19-230)
# T3 construct: whole, on cells; not tied to the cell line; also called BWZ Human TREM2
# T3 sequence (looked up): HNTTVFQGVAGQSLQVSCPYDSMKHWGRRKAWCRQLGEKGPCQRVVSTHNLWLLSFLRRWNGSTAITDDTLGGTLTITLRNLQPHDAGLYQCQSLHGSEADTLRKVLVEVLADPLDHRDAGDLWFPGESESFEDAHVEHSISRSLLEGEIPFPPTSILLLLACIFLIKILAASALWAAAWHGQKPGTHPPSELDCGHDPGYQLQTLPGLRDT
# B1: T1-38 (antibody, IgG1, V domains shown)
# VH: QVQLVESGGGVVQPGRSLRLSCAASGLTFSSYGMHWVRQAPGKGLEWVAVISYDGSNKYYADSVKGRFTISRDNSKNTLYLQMNSLRAEDTAVYYCARERGTYYYASGWANWGQGTLVTVSS
# VL: not shown
# notes: huIgG1; also called TI-38; ADI-19112
# B2: T1-39 (antibody, IgG1, V domains shown)
# VH: EVQLVESGGGLVKPGGSLRLSCAASGFTFSSYSMNWVRQAPGKGLEWVSSISSSSNYIYYADSVKGRFTISRDNAKNSLYLQMNSLRAEDTAVYYCARRGGSSSTGLLYWGQGTLVTVSS
# VL: DIQLTQSPSSVSASVGDRVTITCRASQDISSWLAWYQQKPGKAPKLLIYAASSLQSGVPSRFSGSGSGTDFTLTISSLQPEDFATYYCQQSLTHPTFGGGTKVEIK
# notes: huIgG1; also called TI-39; ADI-19113
# B3: T1-42 (antibody, IgG1, V domains shown)
# VH: QVQLVESGGGVVQPGRSLRLSCAASGFTFSSYGMHWVRQAPGKGLEWVAVIWYDGSNKGYADSVKGRFTISRDNSKNTLYLQMNSLRAEDTAVYYCARELMVTSGGWLYGMDVWGQGTTVTVSS
# VL: EIVMTQSPATLSVSPGERATLSCRASQSVSSNLAWYQQKPGQAPRLLIYGASTRATGIPARFSGSGSGTEFTLTISSLQSEDFAVYYCQQYNVHPPRTFGGGTKVEIK
# notes: huIgG1; also called TI-42; ADI-19116
# B4: T1-43 (antibody, IgG1, V domains shown)
# VH: QVQLVQSGAEVKKPGASVKVSCKASGYTFTSYYMHWVRQAPGQGLEWMGIINPSGGSTSYAQKFQGRVTMTRDTSTSTVYMELSSLRSEDTAVYYCAREAGNYYDIESAFDIWGQGTMVTVSS
# VL: not shown
# notes: huIgG1; also called TI-43; ADI-19117
# B5: T1-8 (antibody, IgG1, V domains shown)
# VH: QVQLVQSGAEVKKPGASVKVSCKASGYTFTSYYMHWVRQAPGQGLEWMGIINPSGGSTSYAQKFQGRVTMTRDTSTSTVYMELSSLRSEDTAVYYCAREVSMTAASLDVWGQGTMVTVSS
# VL: not shown
# notes: huIgG1; also called TI-8; ADI-19074
# B6: T1-10 (antibody, IgG1, V domains shown)
# VH: B5 VH with V100G, M102G, T103S, A104W, A105E, S106T
# VL: not shown
# notes: huIgG1; also called TI-10; ADI-19077
# B7: T1-46 (antibody, IgG1, V domains shown)
# VH: B5 VH with I50V, V100G, M102G, T103Y, A104D, A105E, L107M, M115T
# VL: not shown
# notes: huIgG1; also called TI-46; ADI-19124
# B8: T1-9 (antibody, IgG1, V domains shown)
# VH: QVQLVQSGAEVKKPGASVKVSCKASGYTFTSYYMHWVRQAPGQGLEWMGIINPSGGSTSYAQKFQGRVTMTRDTSTSTVYMELSSLRSEDTAVYYCAREAGYDISSAFDIWGQGTMVTVSS
# VL: not shown
# notes: huIgG1; also called TI-9; ADI-19076
# B9: T1-6 (antibody, IgG1, V domains shown)
# VH: B8 VH with I50V, A100S, Y102H, D103S, I104Y, S105V, A107S, I110P, M116L
# VL: not shown
# notes: huIgG1; also called TI-6; ADI-19072
# B10: T1-55 (antibody, IgG1, V domains shown)
# VH: QVQLVQSGAEVKKPGASVKVSCKASGYTFTSYYMHWVRQAPGQGLEWMGVINPSGGSTSYAQKFQGRVTMTRDTSTSTVYMELSSLRSEDTAVYYCARGADYYAGFDYWGQGTLVTVSS
# VL: not shown
# notes: huIgG1; also called TI-55; ADI-19130
# B11: T1-4 (antibody, IgG1, V domains shown)
# VH: QVQLVQSGAEVKKPGSSVKVSCKASGGTFSSYAISWVRQAPGQGLEWMGGIIPIFGTANYAQKFQGRVTITADESTSTAYMELSSLRSEDTAVYYCARHYYYGYAYFDLWGRGTLVTVSS
# VL: EIVMTQSPATLSVSPGERATLSCRASQSVSSNLAWYQQKPGQAPRLLIYGASTRATGIPARFSGSGSGTEFTLTISSLQSEDFAVYYCQQFNNHPITFGGGTKVEIK
# notes: huIgG1; also called TI-4; ADI-19070
# B12: T1-61 (antibody, IgG1, V domains shown)
# VH: QVQLQESGPGLVKPSETLSLTCAVSGYSISSGYYWGWIRQPPGKGLEWIGSIYHSGSTYYNPSLKSRVTISVDTSKNQFSLKLSSVTAADTAVYYCARHDDYLSSFDPWGQGTLVTVSS
# VL: not shown
# notes: huIgG1; also called TI-61; ADI-19137
# B13: T1-1 (antibody, IgG1, V domains shown)
# VH: QVQLVQSGAEVKKPGSSVKVSCKASGGTFSSYAISWVRQAPGQGLEWMGGIIPIFGTANYAQKFQGRVTITADESTSTAYMELSSLRSEDTAVYYCARGQGSDHYYYGMDVWGQGTTVTVSS
# VL: not shown
# notes: huIgG1; also called TI-1; ADI-19067
# B14: T1-7 (antibody, IgG1, V domains shown)
# VH: B10 VH with V50I, A100L, D101I, Y103G, A104D, G105A
# VL: not shown
# notes: huIgG1; also called TI-7; ADI-19073
# B15: T1-35 (antibody, IgG1, V domains shown)
# VH: QVQLVESGGGVVQPGRSLRLSCAASGFTFSSYGMHWVRQAPGKGLEWVAVISYDGSNKYYADSVKGRFTISRDNSKNTLYLQMNSLRAEDTAVYYCARPDYYSSRGVFDIWGQGTMVTVSS
# VL: not shown
# notes: huIgG1; also called TI-35; ADI-19109
# B16: T1-36 (antibody, IgG1, V domains shown)
# VH: B15 VH
# VL: not shown
# notes: huIgG1; also called TI-36; ADI-19110
# Legend:
# [1] = molecular target: human TREM1 (human, UniProt Q9NP99 21-205, limits assumed); test: IgG, monovalent; method and antigen form not stated
# [2] = molecular target: T1, mouse TREM1 on CHO cells; test: FACS, CHO mouse TREM1
# [3] = molecular target: T2, mouse TREM2 on BWZ cells; test: FACS, BWZ mouse TREM2
# [4] = molecular target: T4, human TREM1 on cells (human, UniProt Q9NP99 21-234); test: FACS, CHO human TREM1
# T4 construct: Some reporter cells carry a human TREM1/CD3 zeta fusion instead; also called CHO-huT1; CHO-hT1
# [5] = molecular target: T4, human TREM1 on cells; test: FACS, human neutrophils
# [6] = molecular target: T3, human TREM2 on BWZ cells; test: FACS, BWZ human TREM2
# [7] = molecular target: T4, human TREM1 on cells; test: FACS ligand blocking on CHO-huTREM1, 10 ug/mL IgG; competitor hPGLYRP1/PGN-BS
Binder,Kd [1] [µM],koff [1] [s⁻¹],kon [1] [M⁻¹ s⁻¹],FOB Fold Over Background [2] [fold],FOB Fold Over Background [3] [fold],FOB Fold Over Background [4] [fold],FOB Fold Over Background [5] [fold],FOB Fold Over Background [6] [fold],% ligand binding blocked [7] [%]
B1,0.0571,0.00556,97300,22.9,0.8,388,2.1,0.5,
B2,0.0497,0.0111,224000,54.3,1.2,441,2.4,0.8,
B3,0.0463,0.0146,314000,,,,,,≥ 85
B4,0.0122,0.001,82500,7.6,1.5,456,2.3,0.9,
B5,0.177,0.0142,80400,0.7,1.2,455,1.6,1.9,
B6,0.00845,0.000663,78500,0.8,1,526,2.9,0.9,
B7,0.0137,0.00113,82300,,1,491,5.9,0.9,≥ 50
B8,0.11,0.00856,78100,0.7,1.5,312,1.7,0.7,
B9,0.203,0.0168,82800,0.4,0.7,409,2.7,0.4,
B10,0.0886,0.00571,64400,3.3,1.1,420,2,1.1,
B11,0.111,0.0264,239000,0.4,1.3,509,2.2,0.7,
B12,0.0368,0.00723,196000,,1.1,433,5.7,0.9,≥ 50
B13,0.179,0.0168,93600,0.4,1.5,352,4.4,1.3,
B14,0.167,0.0206,124000,0.8,1.1,452,2.6,1.1,
B15,0.0156,0.00188,121000,37,1.1,435,2.3,0.7,
B16,0.022,0.00233,106000,59.1,1.1,453,2.8,0.8,

# Where a chain is given by its changes, count along the chain named.
